## Exposed polarity of cyclic peptides

Values of Boehm et al. 2017, doi:10.1021/acs.jmedchem.7b01028, as listed in CycPeptMPDB.

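Conditions beyond the assay type are not listed; see the original paper. Other peptides of the study may be missing here.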

EPSA is the experimental polar surface area, a chromatographic measure of exposed polarity.

{"smiles": "O=C1CN(CCCc2ccccc2)C(=O)[C@H]2CCCN2C(=O)[C@H](Cc2cccnc2)NC(=O)[C@H](Cc2cscn2)NC(=O)[C@@H](Cc2ccccc2)NC(=O)[C@H](CCCc2ccccc2)N1", "EPSA (Å2)": "89"}
{"smiles": "CC(C)(C)C[C@@H]1NC(=O)CN(CCCc2ccc(F)cc2F)C(=O)[C@H]2CCCN2C(=O)[C@H](Cc2cscn2)NC(=O)[C@H](CC(C)(C)C)NC(=O)[C@@H](Cc2ccccc2)NC1=O", "EPSA (Å2)": "70"}
{"smiles": "O=C1CN(CCCc2ccccc2)C(=O)[C@H]2CCCN2C(=O)[C@H](Cc2cccnc2)NC(=O)[C@H](Cc2c[nH]c3ccccc23)NC(=O)[C@@H](Cc2ccccc2)NC(=O)[C@H](CCCc2ccccc2)N1", "EPSA (Å2)": "104"}
{"smiles": "CC(C)(C)C[C@@H]1NC(=O)[C@@H](Cc2ccccc2)NC(=O)[C@H](CC2CCCCC2)NC(=O)CN(CCCc2ccc(F)cc2F)C(=O)[C@H]2CCCN2C(=O)[C@H](Cc2cscn2)NC1=O", "EPSA (Å2)": "74"}
{"smiles": "CC(C)(C)C[C@@H]1NC(=O)[C@@H](Cc2ccccc2)NC(=O)[C@H](CCCc2ccccc2)NC(=O)CN(CCCc2ccccc2)C(=O)[C@H]2CCCN2C(=O)[C@H](Cc2cscn2)NC1=O", "EPSA (Å2)": "80"}
{"smiles": "O=C1CN(CCCc2ccccc2)C(=O)[C@H]2CCCN2C(=O)[C@H](Cc2cccnc2)NC(=O)[C@H](CCCc2ccccc2)NC(=O)[C@@H](Cc2ccccc2)NC(=O)[C@H](CCCc2ccccc2)N1", "EPSA (Å2)": "90"}
{"smiles": "CN1C(=O)[C@H](CCCc2ccccc2)NC(=O)CN(CCCc2ccccc2)C(=O)[C@H]2CCCN2C(=O)[C@H](Cc2cccnc2)NC(=O)[C@H](Cc2cscn2)N(C)C(=O)[C@H]1Cc1ccccc1", "EPSA (Å2)": "83"}
{"smiles": "O=C1CN(CCCc2ccccc2)C(=O)[C@H]2CCCN2C(=O)[C@H](Cc2cccnc2)NC(=O)[C@H](CCc2ccccc2)NC(=O)[C@@H](Cc2ccccc2)NC(=O)[C@H](CCCc2ccccc2)N1", "EPSA (Å2)": "89"}
{"smiles": "CC(C)(C)C[C@@H]1NC(=O)[C@@H](Cc2ccccc2)NC(=O)[C@H](Cc2ccccc2)NC(=O)CN(CCCc2ccc(F)cc2F)C(=O)[C@H]2CCCN2C(=O)[C@H](Cc2cscn2)NC1=O", "EPSA (Å2)": "74"}
{"smiles": "CC(C)(C)C[C@@H]1NC(=O)[C@@H](Cc2ccccc2)NC(=O)[C@H](COCc2ccccc2)NC(=O)CN(CCCc2ccc(F)cc2F)C(=O)[C@H]2CCCN2C(=O)[C@H](Cc2cscn2)NC1=O", "EPSA (Å2)": "77"}
{"smiles": "CC(C)(C)C[C@@H]1NC(=O)[C@@H](Cc2ccccc2)NC(=O)[C@H](Cc2ccccc2)NC(=O)CN(CCCc2ccccc2)C(=O)[C@H]2CCCN2C(=O)[C@H](Cc2cscn2)NC1=O", "EPSA (Å2)": "79"}
{"smiles": "CN1C(=O)[C@@H](Cc2ccccc2)NC(=O)[C@H](CCCc2ccccc2)NC(=O)CN(CCCc2ccccc2)C(=O)[C@H]2CCCN2C(=O)[C@H](Cc2cccnc2)NC(=O)[C@@H]1Cc1cscn1", "EPSA (Å2)": "86"}
{"smiles": "CC(C)(C)C[C@@H]1NC(=O)[C@@H](Cc2ccccc2)NC(=O)[C@H](CCCc2ccccc2)NC(=O)CN(CCCc2ccccc2)C(=O)[C@H]2CCCN2C(=O)[C@H](Cc2cccnc2)NC1=O", "EPSA (Å2)": "79"}
{"smiles": "CC(C)(C)C[C@@H]1NC(=O)[C@@H](Cc2ccccc2)NC(=O)[C@H](Cc2ccc(F)cc2)NC(=O)CN(CCCc2ccc(F)cc2F)C(=O)[C@H]2CCCN2C(=O)[C@H](Cc2cscn2)NC1=O", "EPSA (Å2)": "74"}

Excerpt, the final 2 entries:

{"smiles": "CC(C)(C)C[C@@H]1NC(=O)[C@@H](Cc2ccccc2)NC(=O)[C@H](CCCc2ccccc2)NC(=O)CN(CCCc2ccccc2)C(=O)[C@H]2CCCN2C(=O)[C@H](Cc2cccnc2)NC1=O", "EPSA (Å2)": "79"}
{"smiles": "CC(C)(C)C[C@@H]1NC(=O)[C@@H](Cc2ccccc2)NC(=O)[C@H](Cc2ccc(F)cc2)NC(=O)CN(CCCc2ccc(F)cc2F)C(=O)[C@H]2CCCN2C(=O)[C@H](Cc2cscn2)NC1=O", "EPSA (Å2)": "74"}